The values below come from patent publication US20210393742A1, “LONG-ACTING INTERLEUKIN-15 RECEPTOR AGONIST IN COMBINATION WITH ANOTHER PHARMACOLOGICALLY ACTIVE AGENT” (Nektar Therapeutics, priority 2018, published 2021).

Holding throughout (type): in vivo, mice
In assay [1] the test system is SKOV-3 cells. In words: Tumor growth inhibition in SKOV-3 ovarian carcinoma model (Example 21). The settings on record: trastuzumab 13.5 mg/kg IV x6, Compound 1 0.3 mg/kg IV x3. The procedure: Balb/c nude mice (N=10/group) inoculated subcutaneously on flank with 10 million SKOV-3 cells mixed with matrigel in 1:1 ratio were treated with total of six doses of trastuzumab (13.5 mg/kg, IV, administered twice a week for 3 weeks starting on day 6 after inoculation) and a total of three doses of mono(methoxyPEG-N-butanamide)40 kD interleukin-15 (Compound 1) (0.3 mg/kg, intravenous), administered 6, 13 and 20 days after tumor inoculation). Tumor growth inhibition in inoculated mice was measured 35 days after treatment initiation. Results are provided graphically in FIG. 24.

For assay [2], the system named is NCI-N87 cells. Put plainly: Tumor growth inhibition in NCI-N87 gastric carcinoma model (Example 22). The settings on record: 25 days after treatment initiation; trastuzumab 3/1/1 mg/kg IV; Compound 1 0.3 mg/kg IV x3. How it is done:
Balb/c nude mice (N=10/group) inoculated subcutaneously on flank with 10 million NCI-N87 cells mixed with matrigel in 1:1 ratio were treated with total of three doses of trastuzumab (first dose 3 mg/kg and subsequent two doses 1 mg/kg, IV, administered 5, 12 and 20 days after inoculation) and a total of three doses of mono(methoxyPEG-N-butanamide)40 kD interleukin-15 (Compound 1) (0.3 mg/kg, intravenous), administered 5, 12 and 19 days after tumor inoculation. Tumor growth inhibition in inoculated mice was measured 25 days after treatment initiation. Results are provided graphically in FIG. 25.

The test system of assay [3] is H1975 lung carcinoma cells. Put plainly: Tumor growth in H1975 lung tumor model (Example 17). The note with it: day 27 after treatment initiation; cetuximab 0.25 mg/kg IP x3; Compound 1 0.3 mg/kg IV x3. The procedure:
Balb/c nude mice (N=10/group) inoculated subcutaneously on flank with 5 million H1975 cells were treated with total of 3 doses of cetuximab (0.25 mg/kg, IP, administered 9, 12 and 16 days after inoculation) and a total of three doses of mono(methoxyPEG-N-butanamide)40 kD interleukin-15 (Compound 1) (0.3 mg/kg, intravenous), administered 9, 16 and 23 days after tumor inoculation. Delay in loss of tumor growth control was evaluated on day 27 after treatment initiation. Results are provided graphically in FIG. 20.

Assay [4] deals with HT-29 colorectal carcinoma cells. Put plainly: Tumor growth inhibition and delay in HT-29 colorectal carcinoma model (Example 18). The settings on record: day 21 after treatment initiation; cetuximab 40 mg/kg IP x6; Compound 1 0.3 mg/kg IV x3. How it is done:
SCID mice (N=8/group) inoculated subcutaneously on flank with 5 million HT-29 cells were treated with total of six doses of cetuximab (40 mg/kg, IP, administered 7, 11, 14, 18, 21, 25 days after inoculation) and a total of three doses of mono(methoxyPEG-N-butanamide)40 kD interleukin-15 (Compound 1) (0.3 mg/kg, intravenous), administered 7, 14 and 21 days after tumor inoculation. Tumor growth inhibition was evaluated on day 21 after treatment initiation. Results are provided graphically in FIG. 21A.
The tumor growth delay (TVQT) was evaluated with the endpoint set as 400% tumor growth from baseline.

Assay [5] concerns HCT-116 colorectal carcinoma cells. In words: Tumor growth inhibition and delay in HCT-116 colorectal carcinoma xenograft model (Example 19). How it is done:
SCID mice (N=8/group) inoculated subcutaneously on flank with 5 million HCT-116 cells were treated with total of six doses of cetuximab (40 mg/kg, IP, administered 7, 11, 14, 18, 21, 25 days after inoculation) and a total of three doses of mono(methoxyPEG-N-butanamide)40 kD interleukin-15 (Compound 1) (0.3 mg/kg, intravenously, administered 7, 14 and 21 days after tumor inoculation). Tumor growth inhibition was evaluated on day 19 after treatment initiation. Results are provided graphically in FIG. 22A.
The tumor growth delay was evaluated by measuring tumor volume quadrupling time (TVQT) from baseline tumor volume on treatment initiation day.

Regarding “Trastuzumab: humanized anti-HER2 monoclonal antibody (Herceptin®, Genentech, Inc.)”, the tumor growth inhibition in assay [1] (35 days after treatment initiation) was 61%; in assay [2], 29%. For the same substance, in assay [1], the tumor free animals result was “no tumor free animals”.

On to “cetuximab: anti-EGFR monoclonal antibody (Erbitux®, Lilly USA) [reference compound]”, for which the tumor growth control result in assay [3] is reported as “resumption of tumor growth after cetuximab treatment schedule had been completed”. Besides, the tumor growth inhibition result in assay [4] was “no tumor growth inhibition”; in assay [5] (day 19 after treatment initiation, cetuximab 40 mg/kg IP x6, Compound 1 0.3 mg/kg IV x3), “no tumor growth inhibition”. Further, the “tumor growth delay (TVQT)” value in assay [5] (tumor volume quadrupling time from baseline) is reported as “no tumor growth delay”.
